Data published in patent US10213416B2, “Substituted benzoxazolone derivatives as acid ceramidase inhibitors, and their use as medicaments” (FONDAZIONE ISTITUTO ITALIANO DI TECNOLOGIA, priority 2014, dated 2019).

The chains behind the UniProt entries cited, without tags or fusion partners. Residues count along the entry.
UniProt Q13510, 143-395: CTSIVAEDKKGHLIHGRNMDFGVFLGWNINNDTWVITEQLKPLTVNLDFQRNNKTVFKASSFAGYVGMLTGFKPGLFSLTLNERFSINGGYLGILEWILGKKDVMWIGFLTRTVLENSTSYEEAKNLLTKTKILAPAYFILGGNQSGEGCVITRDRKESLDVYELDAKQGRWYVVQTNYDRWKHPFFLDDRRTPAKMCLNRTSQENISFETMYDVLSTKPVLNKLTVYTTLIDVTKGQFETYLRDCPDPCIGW
UniProt Q13510, 22-142: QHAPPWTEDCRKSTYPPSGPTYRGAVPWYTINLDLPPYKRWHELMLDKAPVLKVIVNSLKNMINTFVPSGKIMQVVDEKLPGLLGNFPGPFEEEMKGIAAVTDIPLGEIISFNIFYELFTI

Target: human (hAC) acid ceramidase (Homo sapiens (Human), UniProt Q13510)
Assay: Fluorescent-based in vitro assay of acid ceramidase inhibition
Type: biochemical
Details: human acid ceramidase-enriched lysosomal lysate from HEK293 cells, fluorogenic probe 5 μM, pH 4.5
From the text: To evaluate the potency of the compounds towards acid ceramidase, a fluorescence-based in vitro assay previously described in literature (Bedia C et al., ChemBioChem, 2007, 8, 642-648) was implemented and optimized. This assay is based on a “fluorogenic probe” containing a coumarin group and a sphingoid base moiety (see figure below), which is not fluorescent in itself, but upon enzymatic cleavage by acid ceramidase followed by a chemical transformation liberates the fluorescent molecule umbelliferone (7-hydroxychromen-2-one). By quantifying the generation of umbelliferone using a fluorescence plate-reader, the level of enzymatic activity can be measured, whereby IC50 values of compounds that inhibit this activity can be generated.
Lysosomal lysate, enriched with acid ceramidase, was prepared from a cell line stably expressing human acid ceramidase. […]
A lysosomal human acid ceramidase protein preparation was obtained from HEK293 cells stably expressing acid ceramidase suspended in 20 mM Tris HCl (pH 7.5) with 0.32 M sucrose. […] The suspension was finally centrifuged at 105,000×g for 1 h at 4° C. and protein concentration was measured in the supernatant with bicinchinonic-acid based protein assay. […]

IC50: 220 ± 70 nM
SMILES: COc1ccc(C(O)c2ccc3c(c2)oc(=O)n3C(=O)NCCCCCc2ccccc2)cc1 (racemic) [Example 7, (±)-6-[hydroxy-(4-methoxyphenyl)methyl]-2-oxo-N-(5-phenylpentyl)-1,3-benzoxazole-3-carboxamide]
